One compound from patent publication US20230203052A1, “ACYCLIC CUCURBITURILS, METHODS OF MAKING SAME, AND USES THEREOF” (University of Maryland, College Park, priority 2020, published 2023) can be followed below.

A short description of the test: ITC binding of guests to host 1 (direct or competitive titration). The settings on record: pH 7.4.

With `CN1CC[C@]23c4c5ccc(O)c4O[C@H]2C(=O)CC[C@H]3[C@H]1C5` [Hydromorphone], the “Ka of host·guest complex of 1” value is reported as 2.54 × 10^6; −15.4 M^−1.
